Measured values reported in PubChem BioAssay AID588675 (Johns Hopkins Ion Channel Center, 2011).
The entries are a selection whose mix differs from that of the whole data set. Some of these compounds have results that are not shown, active ones among them. Active and inactive are the calls of the source.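 The calls were made as follows: active = plate-corrected calcium response at least 3 library SD above typical, normal starting fluorescence, not activating the receptor alone; inactive = the rest.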

Sequences of proteins named here, by UniProt entry; tags and fusion partners are left off.
UniProt Q96LB2, whole entry: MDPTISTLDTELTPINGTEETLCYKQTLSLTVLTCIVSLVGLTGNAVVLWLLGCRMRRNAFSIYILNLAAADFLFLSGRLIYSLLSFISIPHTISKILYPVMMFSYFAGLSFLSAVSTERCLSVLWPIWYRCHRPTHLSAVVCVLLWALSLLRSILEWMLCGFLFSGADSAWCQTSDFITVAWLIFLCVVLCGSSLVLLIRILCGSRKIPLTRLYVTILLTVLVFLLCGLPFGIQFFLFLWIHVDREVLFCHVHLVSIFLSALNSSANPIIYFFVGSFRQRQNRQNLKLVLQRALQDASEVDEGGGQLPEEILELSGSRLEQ

target: Mas-related G-protein coupled receptor member X1 (Homo sapiens) (UniProt Q96LB2); assay: positive allosteric modulators of MrgX1, primary screen, HEK293 cells, Fluo-4 calcium flux (AID 588675); conditions: MrgX1-HEK293, Fluo-4 calcium flux, FDSS; at 10 µM;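 also: compound read alongside a low EC10 to EC30 dose of BAM8-22 agonist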

**Q.** Which outcome does the source give for `C=CCN1CCN(CCOC(=O)C(O)(c2ccccc2)c2ccccc2)CC1` here?
**A.** Its outcome is “inactive”.

**Q.** Which outcome does the source give for `O=C(NCC1(N2CCCCC2)CCCCC1)c1cc(F)c(F)cc1Cl` here?
**A.** The outcome was “inactive”.

**Q.** For `COc1ccc(C(=O)NCC2(N(C)C)CCCCC2)cc1`, which outcome is on record?
**A.** Its outcome is “inactive”.

**Q.** How did the outcome turn out when `CCN1CCCC(OC(=O)C2(O)c3ccccc3C=Cc3ccccc32)C1` (centres undefined) was run?
**A.** Its outcome is “inactive”.

**Q.** With `Cc1cc(C(=O)NCC2(N3CCCCC3)CCCCC2)ccc1[N+](=O)[O-]` as the molecule, how does the outcome read?
**A.** The outcome was “inactive”.

**Q.** For `O=C(NCC1(N2CCCCC2)CCCCC1)c1cccc(Br)c1`, which outcome is on record?
**A.** Its outcome is “inactive”.

**Q.** `Cc1ccccc1C(=O)NCC1(N2CCCCC2)CCCCC1` was tested. Which outcome did it give?
**A.** Its outcome is “inactive”.

**Q.** For `CN(C)c1ccc(C(=O)NCC2(N(C)C)CCCCC2)cc1`, which outcome is on record?
**A.** The outcome was “inactive”.

**Q.** With `CN(C)C1CCCC1OC(=O)C(O)(c1ccccc1)c1ccccc1` (centres undefined) as the molecule, how does the outcome read?
**A.** The outcome was “inactive”.

**Q.** How did the outcome turn out when `CCN(CC)CC(C)C(C)OC(=O)C(O)(c1ccccc1)c1ccccc1` (centres undefined) was run?
**A.** Its outcome is “inactive”.

**Q.** How did the outcome turn out when `COc1cc(SC)ccc1C(=O)NCC1(N(C)C)CCCCC1` was run?
**A.** Its outcome is “inactive”.

**Q.** With `CC(C)N1C(=O)CC2(CCN(CCOC(=O)C(O)(c3ccccc3)c3ccccc3)CC2)C1=O` as the molecule, how does the outcome read?
**A.** Its outcome is “inactive”.

**Q.** Which outcome does the source give for `Cc1ccc(C(=O)NCC2(N3CCCCC3)CCCCC2)cc1` here?
**A.** The outcome was “inactive”.

**Q.** For `O=C(NCC1(N2CCCCC2)CCCCC1)c1cc([N+](=O)[O-])ccc1Cl`, which outcome is on record?
**A.** The outcome was “inactive”.

**Q.** Which outcome does the source give for `CN1[C@@H]2CC[C@H]1CC(OC(=O)C(O)(c1ccccc1)c1ccccc1)C2` (some centres undefined) here?
**A.** Its outcome is “inactive”.

**Q.** Which outcome does the source give for `COc1ccc(Br)c(C(=O)NCC2(N3CCCCC3)CCCCC2)c1` here?
**A.** The outcome was “inactive”.

**Q.** For `CC(C)Oc1ccc(C(=O)NCC2(N(C)C)CCCCC2)cc1`, which outcome is on record?
**A.** Its outcome is “inactive”.

**Q.** With `CN(C)c1cccc(C(=O)NCC2(N(C)C)CCCCC2)c1` as the molecule, how does the outcome read?
**A.** The outcome was “inactive”.

**Q.** With `O=C(OC1CN2CCC1CC2)C(CO)(c1ccccc1)c1ccccc1` (centres undefined) as the molecule, how does the outcome read?
**A.** The outcome was “inactive”.

**Q.** How did the outcome turn out when `COc1cccc(C(=O)NCC2(N3CCCCC3)CCCCC2)c1` was run?
**A.** The outcome was “inactive”.

**Q.** How did the outcome turn out when `COc1ccc(Cl)cc1C(=O)NCC1(N(C)C)CCCCC1` was run?
**A.** The outcome was “inactive”.

**Q.** Which outcome does the source give for `O=C(NCC1(N2CCCCC2)CCCCC1)c1cccc(Cl)c1` here?
**A.** Its outcome is “inactive”.

**Q.** With `CN(C)C1(CNC(=O)c2ccc(Br)cc2)CCCCC1` as the molecule, how does the outcome read?
**A.** The outcome was “inactive”.

**Q.** For `COc1cc(C(=O)NCC2(N(C)C)CCCCC2)c([N+](=O)[O-])cc1OC`, which outcome is on record?
**A.** The outcome was “inactive”.
